US20240041840A1 (Areteia Therapeutics, Inc., priority 2020, published 2024)

Tests used:
[1] = system: eosinophil peroxidase (EPX); details: Week 12 (FIG. 8)
Description: Eosinophil peroxidase (EPX) is a granule protein uniquely secreted by eosinophils which can be detected and quantified using an enzyme-linked immunosorbent assay (ELISA). EPX is measured from mucosal swabs or sputum samples. […] In embodiments, normal nasal EPX levels are less than about 10 ng/mg of total protein, whereas moderate to severe asthma of the eosinophilic phenotype may be diagnosed as having nasal EPX levels greater than about 10 ng/mg of total protein. […] Normal induced sputum EPX levels may be less than about 200 ng/mL/g recovered sputum, whereas moderate to severe asthma of the eosinophilic phenotype is diagnosed as having induced sputum EPX levels greater than about 200 ng/mL/g recovered sputum.
(§1) Evaluation of Efficacy: Blood eosinophil count, changes in pulmonary function (FEV1), Asthma Control Questionnaire (ACQ-6), Asthma Control Questionnaire (ACQ-7), Asthma Quality of Life Questionnaire (AQLQ), exhaled nitric oxide, pharyngeal and nasal eosinophil peroxidase were collected periodically during the study.

blood eosinophils = details: Week 12 (primary endpoint)
[2] = system: subjects with eosinophilic asthma
Description: Pulmonary function is measured by performing a spirometry, which measures forced expiratory volume in is (FEV1), the volume of air moved in the first second of exhalation, this is a well-accepted measure of asthma. Forced vital capacity (FVC) is the total volume of air exhaled during the entire forced expiratory volume (FEV) test. The FEV1/FVC ratio is a calculated measure that may provide a more specific measure of bronchoconstriction, independent of processes such as air trapping. Pulmonary function testing can be tested pre-bronchodilator (after waiting a sufficient time so that all bronchodilator medications have cleared) or post-bronchodilator, typically 15-30 minutes after inhaling a short-acting bronchodilator, such as albuterol. Bronchodilator reversibility (BDR) is calculated and assessed by analyzing FEV1 pre- and post-bronchodilator, and calculating the change both as absolute (ml) and percentage change.
as §1, with “study. […]” for “study.”

SMILES: CCCN[C@@H]1CCc2nc(N)sc2C1 [dexpramipexole, (6R)-2-amino-4,5,6,7-tetrahydro-6-(propylamino) benzothiazole]
- Ratio of nasal tissue EPX to baseline compared with placebo ([1]; 150 mg/day): significant lowering
- Ratio of nasal tissue EPX to baseline compared with placebo ([1]; 300 mg/day): significant lowering
- Blood absolute eosinophil count, ratio to baseline geometric LS mean (blood eosinophils; 75 mg/day): 0.4031
- Blood absolute eosinophil count, ratio vs Placebo geometric LS mean (95% CI) (blood eosinophils; 75 mg/day): 0.4489
- Blood absolute eosinophil count, ratio to baseline geometric LS mean (blood eosinophils; 150 mg/day): 0.3056
- Blood absolute eosinophil count, ratio vs Placebo geometric LS mean (95% CI) (blood eosinophils; 150 mg/day): 0.3403
- Blood absolute eosinophil count, ratio to baseline geometric LS mean (blood eosinophils; 300 mg/day): 0.2051
- Blood absolute eosinophil count, ratio vs Placebo geometric LS mean (95% CI) (blood eosinophils; 300 mg/day): 0.2283
- FEV1 difference versus Placebo LSM ([2]; 150 mg/day, Week 12): 0.0131 L
- Pre-Bronchodilator FEV1 Change from Baseline LSM ([2]; Week 8, pooled dexpramipexole arms, <50% AEC reduction at Week 12): 0.131 L

Like-named read-outs stand apart in the source and are kept apart here.
